# Results: US20170319545A1, “METHOD FOR CONTROLLING SKIN PENETRATION” (AJINOMOTO CO., INC., priority 2015, published 2017)
# Tested on: mouse fibroblast 10T1/2 cells
# Test: Cytotoxicity test (cell counting kit-8)
# Details: 0.01-50 mM, exposed 20 hr, control as 1 (FIG. 21)
substance,measurement,value
proline-tetrabutylphosphonium salt,cytotoxicity (specific survival rate),very high cytotoxicity
